Test results published in PubChem BioAssay AID540269 (Sanford-Burnham Center for Chemical Genomics, 2011).

Target: glucose-6-phosphate dehydrogenase-6-phosphogluconolactonase (Plasmodium falciparum 3D7)
Assay: PfG6PD enzyme inhibitors, kinetic NADPH readout, dose response, orthogonal assay, biochemical, kinetic NADPH detection (AID 540269)
Settings: purified PfG6PD-6PGL

## CNc1nc(-c2ccccc2)[n+](-c2ccc(C)cc2)s1
  IC50: 14.6 µM
